Reference: patent US7563899B2, “(S)-N-methylnaltrexone” (Progenics Pharmaceuticals, Inc., priority 2005, dated 2009)

Chains of the proteins cited; added tags and fusions are not shown. Residues count along the entry.
UniProt A0ACM8Q262, 1-400: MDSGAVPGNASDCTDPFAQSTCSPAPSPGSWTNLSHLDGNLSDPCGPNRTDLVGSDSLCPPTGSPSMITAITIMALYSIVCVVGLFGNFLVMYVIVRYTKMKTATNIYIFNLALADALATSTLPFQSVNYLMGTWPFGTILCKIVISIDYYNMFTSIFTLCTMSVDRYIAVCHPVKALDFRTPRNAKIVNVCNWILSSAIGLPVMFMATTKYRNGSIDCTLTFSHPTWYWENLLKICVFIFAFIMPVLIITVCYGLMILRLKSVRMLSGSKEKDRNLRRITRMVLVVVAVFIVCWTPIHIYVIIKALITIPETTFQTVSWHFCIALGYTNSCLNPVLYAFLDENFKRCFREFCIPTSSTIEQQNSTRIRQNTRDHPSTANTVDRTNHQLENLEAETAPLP

Target: μ-opioid receptors in the guinea pig ileum (Cavia porcellus, UniProt A0ACM8Q262)
Assay: Guinea pig ileum bioassay, test for antagonist activity (against DAMGO-induced response)
Details: percent of control response to DAMGO, mean, n=2
Experimental: Experimental Conditions. Segments of guinea pig terminal ileum were suspended in 20-ml organ baths filled with an oxygenated (95% O2 and 5% CO2) and pre-warmed (37° C.) physiological salt solution of the following composition (in mM): NaCl 118.0, KCl 4.7, MgSO4 1.2, CaCl2 2.5, KH2PO4 1.2, NaHCO3 25.0 and glucose 11.0 (pH 7.4). Additional experimental conditions were as described in Hutchinson et al. (1975) Brit. J. Pharmacol., 55: 541-546.
Indomethacin (1 μM), nor-binaltorphimine (0.01 μM), methysergide (1 μM), ondansetron (10 μM) and GR113808 (0.1 μM) were also present throughout the experiments to prevent prostanoid release and to block the k-opioid, 5-HT2, 5-HT3 and 5-HT4 receptors, respectively. The tissues were connected to force transducers for isometric tension recordings. They were stretched to a resting tension of 1 g then allowed to equilibrate for 60 min during which time they were washed repeatedly and the tension readjusted. Thereafter, they were stimulated electrically with pulses of minimal intensity to trigger maximal contractions and 1 ms duration, delivered at 0.1 Hz by a constant current stimulator.
Test for antagonist activity. […] Each concentration was left in contact with the tissues until a stable response was obtained or for a maximum of 15 min.
Analysis and Expression of Results. The parameter measured was the maximum change in the amplitude of the electrically-evoked twitch contractions induced by each compound concentration.

C=CCN1CC[C@]23c4c5ccc(O)c4O[C@H]2C(=O)CC[C@@]3(O)[C@H]1C5 [naloxone, reference compound]
Response to DAMGO (1.0E−07 M) in the presence of the compound (compound 1.0E−07 M): −7%
Response to DAMGO (1.0E−07 M) in the presence of the compound (compound 2.0E−08 M): 43%
Response to DAMGO (1.0E−07 M) in the presence of the compound (compound 5.0E−09 M): 83%
